{"sequences": {"note": "The chains behind the UniProt entries cited, without tags or fusion partners.", "UniProt P49137, whole entry, species assumed": "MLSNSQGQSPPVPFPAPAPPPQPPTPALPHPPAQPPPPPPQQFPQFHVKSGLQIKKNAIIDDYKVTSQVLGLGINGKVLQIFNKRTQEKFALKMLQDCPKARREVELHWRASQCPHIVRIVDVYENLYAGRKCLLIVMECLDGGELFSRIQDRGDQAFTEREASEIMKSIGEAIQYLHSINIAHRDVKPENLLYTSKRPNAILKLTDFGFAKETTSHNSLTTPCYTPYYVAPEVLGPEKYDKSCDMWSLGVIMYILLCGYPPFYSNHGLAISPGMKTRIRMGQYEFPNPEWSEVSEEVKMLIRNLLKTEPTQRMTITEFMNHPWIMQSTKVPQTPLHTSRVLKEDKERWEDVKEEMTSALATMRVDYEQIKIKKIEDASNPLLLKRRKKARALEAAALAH"}, "source": "patent US20040127519A1", "about": "(published 2004)", "molecular_target": "Recombinant MAPKAPK2 (Homo sapiens, UniProt P49137)", "assay": "Determination of MK-2 IC50 (HSP-peptide phosphorylation, anion exchange resin capture assay)", "type": "biochemical", "conditions": "MK-2 Avg. IC50, Table I, aminocyanopyridine MK-2 inhibitors"}
{"smiles": "N#Cc1c(-c2ccco2)cc(-c2cccc(O)c2)nc1N", "note": "[Example 99]", "values": [{"measurement": "IC50", "result": 77.9, "unit": "µM"}]}
